A selection: hits, their analogues and other compounds. The true share with any hit is near 2.2%.
S100A4 MyoIIA: S100A4-myosin IIA interaction inhibition | P26447 | S100A4/TAMRA-MyoIIA peptide fluorescence polarization | inhibition, % at 10.7 µM | 360,000 compounds, 0.14% hits;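 active means mean inhibition of at least 70% across replicates, with every replicate also reaching that level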
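Material: human S100A4 monomer with TAMRA-labelled myosin IIA peptide; buffer or medium: HEPES pH 7.2 with CaCl2, KCl, NaCl, DTT, Triton; compound dosing: one concentration per compound; schedule: 5 min incubation before reading; benchmarks: neutral control DMSO, positive control TFP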
ERp5 inh: blocks human ERp5 reductase activity on insulin. inhibition, % at 9.99 µM. 350,000 compounds, 0.05% hits. ERp5 insulin aggregation, absorbance 650 nm, 90 min. AID 651711. Q15084;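 active means mean replicate inhibition above about 25%, with every replicate also reaching it, limit read from the data, passing the limit was not always enough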
SIRT5 block: sirtuin-5 (human) deacylase inhibition; Q9NXA8; 330,000 compounds, 1.1% hits; Purified SirT5, succinyl-peptide AMC, trypsin-coupled fluorescence; AID 652115; inhibition, % at 15 µM; in the data active means inhibition above about 15%
Yeast UUG start: alters start codon recognition fidelity in yeast; S. cerevisiae UUG-firefly luciferase reporter, luminescence/redox ratio; activity score, % at 18.7 µM; actives 0.13% (n = 350,000); AID 602363;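 active = replicate mean at a twofold rise or more, about +100% in these data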;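 also: firefly luciferase made from a UUG start codon reports start codon fidelity; reporter light over untreated wells divided by growth signal over untreated wells; some hits fall short of that in this replicate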
PDI turbidity: PDI (human) enzyme inhibition | PDI insulin aggregation turbidity, A650, 90 min | inhibition, % at 10 µM | AID 588391 | P07237 | 350,000 compounds, 0.052% hits;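 active means mean inhibition across replicates of 30% or more, whatever share of single replicates reach that level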
FGF22 binding: shifts melting point of recombinant human FGF22 | Q9HCT0 | recombinant FGF22 thermal shift, SYPRO orange fluorescence; percent of sucrose octasulfate shift, DMSO zero | activity (Tm shift, normalised), % at 9.99 µM | 340,000 compounds, 1.5% hits | AID 651658;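 active means mean Tm shift, scaled 0 neutral to 100 positive control, at about 1.3% or above, every replicate too, limit read from the data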
Hits are given with their value; 0 = inactive; - = not tested or not shown; ! = not confirmed by another sample.

SMILES	S100A4 MyoIIA	ERp5 inh	SIRT5 block	Yeast UUG start	PDI turbidity	FGF22 binding
CCOC(=O)C1CCN(C(=O)c2ccc3c(=O)n4nc(Nc5cc(C)ccc5C)sc4nc3c2)CC1	0	0	0	0	0	0
CCOC(=O)C1CCN(C(=O)c2ccc3c(=O)n4nc(Nc5ccccc5OC)sc4nc3c2)CC1	0	0	0	0	0	2.4
O=C1CCC(=O)N1c1nc2nc(-c3ccccc3)cc(-c3ccccc3)n2n1	-	-	-	0	33.3	-
COc1ccc(CN(C)C[C@@H]2Oc3ccc(NC(=O)C4CCCCC4)cc3CC(=O)N([C@H](C)CO)C[C@H]2C)cc1	0	0	0	0	-	0
COc1ccc(CN(C)C[C@H]2Oc3ccc(NC(=O)C4CCCCC4)cc3CC(=O)N([C@@H](C)CO)C[C@H]2C)cc1	0	0	0	0	-	1.7
COc1ccc(CN(C)C[C@H]2Oc3ccc(NC(=O)C4CCCCC4)cc3CC(=O)N([C@@H](C)CO)C[C@@H]2C)cc1	0	0	17.2	0	-	0
COc1ccc(CN(C)C[C@H]2Oc3ccc(NC(=O)C4CCCCC4)cc3CC(=O)N([C@H](C)CO)C[C@H]2C)cc1	0	0	0	0	-	0
Cc1ccccc1-c1cnc2c(c1)C(=O)N([C@@H](C)CO)C[C@H](C)[C@H](CN(C)Cc1cccnc1)O2	0	0	0	0	-	0
O=C(c1ccccc1)N1CC2(C1)[C@H](c1ccccc1)[C@@H](CO)N2Cc1cccnc1	0	0	0	-	-	0
O=C(CSc1ncnc2sccc12)Nc1ccccc1	0	0	0	-	0	43.3
O=C(CSc1ncnc2sccc12)Nc1ccccc1F	0	0	0	-	0	0
C[C@@H](NC(=O)C[C@H]1C=C[C@H](NC(=O)CN2CCOCC2)[C@H](CO)O1)c1ccccc1	0	0	0	0	-	0
C[C@@H](NC(=O)C[C@H]1CC[C@H](NC(=O)C2CC2)[C@@H](CO)O1)c1ccccc1	0	0	16.6	0	-	0
C[C@@H](NC(=O)C[C@H]1C=C[C@@H](NC(=O)C2CCC2)[C@H](CO)O1)c1ccccc1	100.8	0	0	0	-	0
C[C@@H](NC(=O)C[C@H]1CC[C@H](NC(=O)C2CC2)[C@H](CO)O1)c1ccccc1	0	0	0	0	-	0
C[C@H](NC(=O)C[C@@H]1C=C[C@@H](NC(=O)CN2CCOCC2)[C@@H](CO)O1)c1ccccc1	0	0	27.4!	0	-	0
O=C(C[C@@H]1C=C[C@H](NC(=O)CN2CCOCC2)[C@H](CO)O1)NC1CCCCC1	0	0	17.9	0	-	0
CCNC(=O)[C@H]1[C@H](CO)[C@H]2Cn3c(ccc(-c4ccccc4)c3=O)[C@H]2N1C(=O)C1CCCC1	0	0	0	-	-	0
COc1ccccc1-c1cc(C(F)(F)F)nc(S(=O)(=O)CCCC(=O)NCc2ccc(F)cc2)n1	0	0	0	-	0	1.4
COc1ccc2c3c([nH]c2c1)[C@@H](CO)N(Cc1nccs1)CC31CCN(Cc2cncnc2)CC1	0	0	-	-	-	0
FC(F)(F)c1ccc(Cl)c(NC(=S)N/N=C/c2ccccc2Cl)c1	0	0	27.6	0	0	0
c1ccc(COc2cccc(-c3cc4nc(NCCOc5ccccc5)ccn4n3)c2)cc1	0	0	-	0	0	0
c1ccc(COc2cccc(-c3cc4nc(NCCc5ccncc5)ccn4n3)c2)cc1	0	0	18.6	0	0	0
CN(CCOc1ccccc1)C(=O)c1cc([N+](=O)[O-])cc([N+](=O)[O-])c1	0	0	26.9	-	0	0
O=C(NCCOc1ccccc1)c1cc(C(=O)NCCOc2ccccc2)cc([N+](=O)[O-])c1	-	-	-	0	0	-
SMILES	S100A4 MyoIIA	ERp5 inh	SIRT5 block	Yeast UUG start	PDI turbidity	FGF22 binding
CN1C(=O)c2cc(NC(=O)c3ccc(F)c(F)c3)ccc2OC[C@@H]2O[C@H](CC(=O)N3CCOCC3)CC[C@H]21	0	0	0	-	-	0
C[C@@H]1CN([C@@H](C)CO)C(=O)c2cccc(NC(=O)CCCCCC(=O)Nc3ccccc3N)c2O[C@@H]1CN(C)S(C)(=O)=O	0	0	0	-	-	0
Cc1ccc(NS(=O)(=O)c2cc(C(=O)N3CCCC3)ccc2C)cc1C	0	0	0	0	0	0
Cc1ccc(NS(=O)(=O)c2cc(C(=O)N(C)C)ccc2C)cc1C	0	0	0	-	0	43.0
C[C@H](CO)N1C[C@H](C)[C@H](CN(C)S(=O)(=O)c2cn(C)cn2)OCCCC[C@H](C)Oc2ccc(NC(=O)C3CCCCC3)cc2C1=O	0	0	0	0	-	0
C[C@@H]1CN([C@H](C)CO)C(=O)c2cccc(NC(=O)Nc3ccc4c(c3)OCO4)c2O[C@@H]1CN(C)S(=O)(=O)c1cn(C)cn1	0	0	16.2	0	-	0
C[C@@H]1CCCCO[C@@H](CN(C)S(=O)(=O)c2cn(C)cn2)[C@H](C)CN([C@@H](C)CO)C(=O)c2cc(NC(=O)C3CCCCC3)ccc2O1	115.7	0	0	0	-	0
C[C@@H]1CN([C@@H](C)CO)C(=O)c2cc(NC(=O)NC3CCCCC3)ccc2O[C@@H](C)CCCCO[C@@H]1CN(C)S(=O)(=O)c1cn(C)cn1	136.3	0	0	0	-	0
C[C@@H]1CN([C@@H](C)CO)C(=O)c2cc(NC(=O)C3CC3)ccc2O[C@@H]1CN(C)S(=O)(=O)c1cn(C)cn1	0	0	25.0	0	-	0
O=C(C[C@@H]1CC[C@H](NC(=O)Nc2ccccc2F)[C@H](CO)O1)NCc1ccc(Cl)cc1	0	0	0	0	-	0
C[C@@H]1CCCCO[C@H](CN(C)CC2CC2)[C@H](C)CN([C@H](C)CO)C(=O)c2cc(NC(=O)C3CCCCC3)ccc2O1	0	0	0	-	-	0
C[C@H](CO)N1C[C@H](C)[C@@H](CN(C)S(=O)(=O)c2cn(C)cn2)Oc2ccc(NC(=O)Cn3cnnn3)cc2C1=O	0	0	0	0	0	44.2!
C[C@H](CO)N1C[C@H](C)[C@H](CN(C)S(=O)(=O)c2cn(C)cn2)Oc2ccc(NC(=O)Cn3cnnn3)cc2C1=O	0	0	0	0	-	0
COC(=O)C(CC#Cc1ccc2c(c1)[C@]1(C(=O)N2)[C@H](c2ccccc2OCCO)N2[C@H](c3ccccc3)[C@H](c3ccccc3)OC(=O)[C@H]2[C@@H]1C(=O)N1CCc2cc(OC)c(OC)cc2C1)C(=O)OC	0	0	0	0	-	0
COC(=O)C(CC#Cc1ccc2c(c1)[C@]1(C(=O)N2)[C@H](C(=O)NC[C@H](O)c2ccccc2)[C@H]2C(=O)O[C@H](c3ccccc3)[C@H](c3ccccc3)N2[C@@H]1c1ccccc1OCCO)C(=O)OC	0	0	19.4	0	-	0
COc1ccc(C#Cc2ccc3c(c2)[C@]2(C(=O)N3)[C@H](C(=O)N3CCN(c4ncccn4)CC3)[C@H]3C(=O)O[C@H](c4ccccc4)[C@H](c4ccccc4)N3[C@@H]2c2ccc(OCCO)cc2)cc1	0	0	22.8	0	-	0
